Reference: US9574173 (ACCELERATED BIOSCIENCES, dated 2017)

Biological target: mechanistic target of rapamycin (mTOR) (human)
Assay: immunoprecipitation and Western blot, hTS cells, RA 4 hr (FIG. 28g)

binding result: binds
B1: eukaryotic translation initiation factor-4E binding protein 1 (eIF4EBP1) (other)
chain: SGGSSCSQTPSRAIPATRRVVLGDGVQLPPGDYSTTPGGTLFSTTPGGTRIIYDRKFLMECRNSPVTKTPPRDLPTIPGVTSPSSDEPPMEASQSHLRNSPEDKRAGGEESQFEMDI
notes: Endogenous protein of RA-treated hTS cells
